This assay addresses Butyrophilin subfamily 3 member A1 (Homo sapiens, UniProt O00481). Briefly: Binding affinity to C-terminal 6His-tagged BTN3A1 full interaction domain (unknown origin) expressed in Escherichia coli BL21 (DE) by isothermal calorimetric titration method. On the technique in general: Isothermal titration calorimetry measures the heat released or taken up as one component is titrated into another.

The chains behind the UniProt entries cited, without tags or fusion partners. Where a name states a change or a piece, a line headed by the entry shows the natural chain unless it says otherwise.
UniProt O00481: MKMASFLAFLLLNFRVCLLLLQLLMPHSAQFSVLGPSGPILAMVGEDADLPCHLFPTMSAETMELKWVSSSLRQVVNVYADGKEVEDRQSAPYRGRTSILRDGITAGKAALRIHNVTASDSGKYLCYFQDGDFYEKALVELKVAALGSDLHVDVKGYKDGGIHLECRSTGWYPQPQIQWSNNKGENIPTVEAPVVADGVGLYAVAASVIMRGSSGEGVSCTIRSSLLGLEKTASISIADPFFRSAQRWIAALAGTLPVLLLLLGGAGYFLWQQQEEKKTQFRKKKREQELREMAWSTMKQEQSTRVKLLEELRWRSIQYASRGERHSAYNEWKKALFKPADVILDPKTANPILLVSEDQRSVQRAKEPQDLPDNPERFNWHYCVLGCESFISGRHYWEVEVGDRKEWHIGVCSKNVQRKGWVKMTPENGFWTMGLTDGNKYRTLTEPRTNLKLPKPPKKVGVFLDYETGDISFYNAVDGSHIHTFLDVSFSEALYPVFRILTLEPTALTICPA

By Kd is commonly meant the free concentration of one partner at which half of the binding sites on the other are occupied at equilibrium, for simple one-to-one binding.

Structures are written as SMILES.

Compound `C/C(=C\CCP(=O)(O)CP(=O)(O)O)CO` returned a Kd of 111 µM.
